The list shows a part of the results, in another mix than the full data. Results filed as inconclusive are left out. The source made the active and inactive calls. Calls follow the shape of the dose curve; as a rule, active = well fitted cell-killing curve with a large enough effect; inconclusive = small, poorly fitted or top-dose-only effect, or effect the other way; inactive = flat fitted curve, though single readings scatter.
Assay: Compound cytotoxicity measured by an ATP content assay as a counter-screen for lead compounds in human astrocytoma cell line (SNB-19)
Details: SNB-19 astrocytoma viability, ATP luminescence; at 46.1 µM (top of the series)
Protocol: National Center for Advancing Translational Sciences [NCATS] Johns Hopkins University School of Medicine Florida State University Assay Overview: Many compounds can cause cytotoxicity at high compound concentrations. […] The compound cytotoxicity may also cause side effects or toxicity in human. Thus, the compound cytotoxicity needs to be measured in each cell type and each compound incubation time - same as these in the compound screening assay. The compound cytotoxicity can be measured by cell viability assays such as the ATP content assay. We use an ATP content assay kit for cell viability measurement. It measures ATP content (level) in human astrocytoma cell line (SNB-19) using a luminescence readout that is proportional to viable cell numbers. Decrease in the luminescence signal after the compound treatment indicates reduced cell viability and cell death caused by compound treatment.
Assay Protocol Summary: The medium for SNB-19 cells is composed of RPMI 1640 (ATCC, Cat.# 30-2001), 10% fetal bovine serum (FBS) (GE healthcare Life Sciences, Cat.# SH30071.03), and 1% Pen/Strep (Gibco, Cat.# 15140-122). […] After incubation at room temperature for 10 minutes, the luminescence intensity in assay plates was measured using a ViewLux plate reader (PerkinElmer). […] The percentage inhibitions of the decreased cell viability by small molecules were then calculated that indicate compound cytotoxicity.

## C/C1=C2N=C(/C=C3N=C(/C(C)=C4\[N-][C@@](C)([C@@H]5N=C1[C@](C)(CCC(=O)NC[C@@H](C)OP(=O)([O-])O[C@H]1[C@@H](O)[C@@H](n6cnc7cc(C)c(C)cc76)O[C@@H]1CO)[C@H]5CC(N)=O)[C@@](C)(CC(N)=O)[C@@H]4CCC(N)=O)[C@@](C)(CC(N)=O)[C@@H]\3CCC(N)=O)C(C)(C)[C@@H]/2CCC(N)=O.[C-]#N.[Co+3]
  activity change, negative = cytotoxicity: inactive: -8.44%

## CCOP(=O)(CC)Oc1ccc([N+](=O)[O-])cc1 (configuration not stated)
  activity change, negative = cytotoxicity: inactive: 20.3%
